Data reported in patent publication US20240139185A1, “COMPOUNDS THAT PARTICIPATE IN COOPERATIVE BINDING AND USES THEREOF” (Revolution Medicines, Inc., priority 2018, published 2024).

What was measured:
[1] = molecular target: cyclophilin A (CYPA) (Homo sapiens, UniProt P62937); assay: CYPA-compound binary complex formation by SPR; conditions: read-out: CYPA Binding Affinity
Outline: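 Steady-state fit of SPR responses gave binding affinity. Analyte series: 50 μM downward, 2-fold, 10 points, running buffer HBS-P+ (0.05% Tween20, pH7.4, 2% DMSO), 60 s on/60 s off. Surface: biotinylated CypA-Avi captured at 4 μg/ml against a reference cell, regenerated with NaOH/guanidine.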

[2] = molecular target: BRAF-GTP-KRAS-G12C complex (Homo sapiens, UniProt P01116+P62937, G12C); assay: KRAS-BRAF complex disruption through competition with CYPA-compound by TR-FRET; conditions: read-out: BRAF-GTP-KRAS-G12C Disruption; biochemical BRAF-KRAS G12C-GTP disruption assay EC50, with CYPA
Outline: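 Compound-driven loss of KRAS–BRAF RBD TR-FRET signal, Eu-anti-His/APC-anti-GST pair (10/50 nM, 1.5 h), following a 3 h room-temperature preincubation of 50 nM His6-KRAS G12C-GTP and 500 nM CypA in 25 mM Hepes pH 7.3 buffer. EC50 by 4-parameter fit. Variants used wild-type KRAS in place of G12C or no CypA.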

[3] = test system: pERK in H358 cells; assay: pERK inhibition in H358 cells; conditions: read-out: Cellular pERK inhibition, 4 hours treatment
Outline: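 Human lung cancer H358 cells in RPMI/10% FBS were exposed to compound or DMSO for 4 h. Fixed and permeabilized cells were stained overnight at 4 C with anti-phospho-ERK1/2 (Thr202/Tyr204). Near-infrared imaging read the pERK signal at 800 nm, with DRAQ5 at 700 nm.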

| Kd [1] [µM] | EC50 [2] [µM] | IC50 [3] [µM] | SMILES |
| --- | --- | --- | --- |
| > 15 | < 0.5 | > 10 | COCC(C#N)(COC)c1cn2c3cc(ccc13)-c1cc(O)cc(c1)C[C@H](NC(=O)[C@H](C(C)C)N(C)C(=O)C1CN(C(=O)CCl)C1)C(=O)N1CCC[C@H](N1)C(=O)OCC(C)(C)C2 |
| 5 to 15 | 0.5 to 5 | 1 to 10 | CC(C)[C@@H](C(=O)N[C@H]1Cc2cc(O)cc(c2)-c2ccc3c(C4CC4)c(C#N)n(c3c2)C[C@H](C)COC(=O)[C@@H]2CCCN(N2)C1=O)N(C)C(=O)C1CN(C(=O)[C@@H](C)Cl)C1 |
| < 5 | 0.5 to 5 | > 10 | C=CC(=O)N1CC(F)(C(=O)N(C)[C@H](C(=O)N[C@H]2Cc3cc(O)cc(c3)-c3ccc4c(c3)n(c(=O)n4C3CC3)C[C@H](C)COC(=O)[C@@H]3CCCN(N3)C2=O)C(C)C)C1 |
| 5 to 15 | > 5 | > 10 | CC(C)[C@@H](C(=O)N[C@H]1Cc2cc(O)cc(c2)-c2ccc3c(-c4cccc5scnc45)cn(c3c2)CC(C)(C)COC(=O)[C@@H]2CCCN(N2)C1=O)N(C)C(=O)C1CN(C(=O)[C@@H](C)Cl)C1 |
| > 15 | > 5 | > 10 | C=CC(=O)N1CC[C@H](C(=O)N(C)[C@H](C(=O)N[C@H]2Cc3cc(O)cc(c3)-c3ccc4cc(-c5cccc6c5OC(F)(F)O6)n(c4c3)C[C@H](C)COC(=O)[C@@H]3CCCN(N3)C2=O)C(C)C)C1 |
| > 15 | < 0.5 | 1 to 10 | CC(C)[C@@H](C(=O)N[C@H]1Cc2cc(O)cc(c2)-c2ccc3c4c(C#N)cccc4n(c3c2)CC(C)(C)COC(=O)[C@@H]2CCCN(N2)C1=O)N(C)C(=O)C1CN(C(=O)CCl)C1 |
| 5 to 15 | 0.5 to 5 | > 10 | C=CC(=O)N1CC[C@H](C(=O)N(C)[C@H](C(=O)N[C@H]2Cc3cc(O)cc(c3)-c3ccc4c(C(C#N)C5CCOC5)cn(c4c3)CC(C)(C)COC(=O)[C@@H]3CCCN(N3)C2=O)C(C)C)C1 (stereo partly drawn) |
| 5 to 15 | 0.5 to 5 | 1 to 10 | C=CC(=O)N1CC[C@H](C(=O)N(C)[C@H](C(=O)N[C@H]2Cc3cc(O)cc(c3)-c3ccc4c(C(C)(C)CC#N)cn(c4c3)CC(C)(C)COC(=O)[C@@H]3CCCN(N3)C2=O)C(C)C)C1 |
| 5 to 15 | < 0.5 | < 1 | COc1cccc(C#N)c1-c1cn2c3cc(ccc13)-c1cc(O)cc(c1)C[C@H](NC(=O)[C@H](C(C)C)N(C)C(=O)C1CN(C(=O)CCl)C1)C(=O)N1CCC[C@H](N1)C(=O)OCC(C)(C)C2 |
| 5 to 15 | < 0.5 | 1 to 10 | CC1COC(=O)[C@@H]2CCCN(N2)C(=O)[C@@H](NC(=O)[C@H](C(C)C)N(C)C(=O)C2CN(C(=O)CCl)C2)Cc2cc(O)cc(c2)-c2ccc3c(C#N)cn(c3c2)C1 (single isomer, unassigned) [Compound 88] |
| < 5 | 0.5 to 5 | > 10 | CC(C)[C@@H](C(=O)N[C@H]1Cc2cc(O)cc(c2)-c2ccc3c(CCC#N)cn(c3c2)CC(C)(C)COC(=O)[C@@H]2CCCN(N2)C1=O)N(C)C(=O)C1CN(C(=O)[C@@H](C)Cl)C1 |
| > 15 | < 0.5 | > 10 | COc1cccc2c1c1ccc3cc1n2C[C@H](C)COC(=O)[C@@H]1CCCN(N1)C(=O)[C@@H](NC(=O)[C@H](C(C)C)N(C)C(=O)C1CN(C(=O)CCl)C1)Cc1cc(O)cc-3c1 |
| > 15 | < 0.5 | < 1 | CC(C)[C@@H](C(=O)N[C@H]1Cc2cc(O)cc(c2)-c2ccc3c(C(F)(F)F)nn(c3c2)CC(C)(C)COC(=O)[C@@H]2CCCN(N2)C1=O)N(C)C(=O)C1CN(C(=O)CCl)C1 |
| 5 to 15 | 0.5 to 5 | < 1 | C=CC(=O)N1CC[C@H](C(=O)N(C)[C@H](C(=O)N[C@H]2Cc3cc(O)cc(c3)-c3ccc4c(c3)c(cn4-c3c(Br)cccc3C#N)CC(C)COC(=O)[C@@H]3CCCN(N3)C2=O)C(C)C)C1 (single isomer, unassigned) [382] |
